The values that follow come from article PMC7573392, “Monitoring Allosteric Interactions with CXCR4 Using NanoBiT Conjugated Nanobodies” (Cell Chemical Biology, 2020).

Chains of the proteins cited; added tags and fusions are not shown. Lines headed by an entry give the natural chain unless they say otherwise; changes in a name come on top. Residues count along the entry.
UniProt P61073: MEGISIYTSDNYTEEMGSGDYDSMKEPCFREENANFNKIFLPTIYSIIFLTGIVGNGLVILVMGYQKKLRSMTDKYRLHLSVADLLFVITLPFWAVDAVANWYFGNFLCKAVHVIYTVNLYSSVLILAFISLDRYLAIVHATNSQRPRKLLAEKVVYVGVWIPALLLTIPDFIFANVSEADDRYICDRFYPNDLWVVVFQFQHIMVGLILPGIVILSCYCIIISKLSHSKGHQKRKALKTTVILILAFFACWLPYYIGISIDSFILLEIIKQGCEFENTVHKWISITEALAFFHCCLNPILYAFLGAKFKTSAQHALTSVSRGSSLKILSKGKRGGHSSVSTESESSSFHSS
UniProt P48061, 22-89: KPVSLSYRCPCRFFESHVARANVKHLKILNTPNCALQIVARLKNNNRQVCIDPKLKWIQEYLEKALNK

In test [1] the target is LgBiT-tagged human CXCR4 receptor (UniProt P61073). Description: FRET or BRET; NanoBRET dissociation kinetics; membranes from HEK293 LgBiT-CXCR4 cells complemented with 20 nM purified HiBiT; 10 nM CXCL12-AF647 for 15 min, then 1 μM CXCL12 added; 37°C; single exponential fit.
The target is the same in test [2]. Description: FRET or BRET; NanoBRET dissociation kinetics; membranes from HEK293 LgBiT-CXCR4 cells complemented with 20 nM purified HiBiT; 10 nM CXCL12-AF647 for 15 min, then 10 μM AMD3100 added; 37°C; single exponential fit.

For the substance “CXCL12-AlexaFluor647 (from UniProt P48061-2 22-89) (ligand; AlexaFluor647 (position not stated))”, the results for the koff in test [1] and in test [2] were 0.00533 s⁻¹ and 0.007 s⁻¹, respectively.
